Laboratory results from article PMC4821887, “Identification of chemicals that mimic transcriptional changes associated with autism, brain aging and neurodegeneration” (Nature Communications, 2016).

Test system: mouse cortical neuron cultures

Diniconazole
% Dead cells (vehicle subtracted): 0.4034%
